Measurements from patent US20260382728A1, “MODIFIED PROTEINS AND PROTEIN BINDERS AND DEGRADERS” (published 2026).

By UniProt entry, the sequences of proteins in these tests, tags left out. Residues count along the entry.
UniProt P11802, whole entry: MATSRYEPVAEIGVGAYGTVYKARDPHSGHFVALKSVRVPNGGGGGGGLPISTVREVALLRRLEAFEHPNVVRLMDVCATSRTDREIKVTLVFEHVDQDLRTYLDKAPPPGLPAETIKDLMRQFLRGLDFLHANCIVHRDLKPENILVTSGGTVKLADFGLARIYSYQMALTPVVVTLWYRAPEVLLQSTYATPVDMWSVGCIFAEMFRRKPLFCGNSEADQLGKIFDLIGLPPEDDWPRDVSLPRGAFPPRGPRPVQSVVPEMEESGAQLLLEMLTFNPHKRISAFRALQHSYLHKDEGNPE
UniProt Q9Y4B6, 1058-1396 limits assumed: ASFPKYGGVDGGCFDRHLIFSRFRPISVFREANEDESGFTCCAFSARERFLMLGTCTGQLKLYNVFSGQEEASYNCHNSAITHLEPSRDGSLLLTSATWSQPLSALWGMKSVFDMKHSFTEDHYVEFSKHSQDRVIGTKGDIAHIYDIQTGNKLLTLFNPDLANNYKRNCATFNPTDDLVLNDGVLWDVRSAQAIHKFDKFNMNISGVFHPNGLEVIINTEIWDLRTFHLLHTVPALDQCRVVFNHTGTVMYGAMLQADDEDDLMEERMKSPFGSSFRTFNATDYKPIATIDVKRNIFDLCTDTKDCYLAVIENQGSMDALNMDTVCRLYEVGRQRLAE

Target: CDK4 (Homo sapiens, UniProt P11802)
Assay: CDK4 degradation in MOLT-4 cells (immunoblotting)
Conditions: 1 μM, 8 hours

Row | Compound | % CDK4 Degradation (at 1 μM)
1 | CC(C)S(=O)(=O)c1ccccc1Nc1nc(Nc2ccc(N3CCN(CC(=O)NCCCCN4CCN(c5cc(N[C@@H]6CCCN(c7cccc(F)c7)C6)ncn5)CC4)CC3)cc2)ncc1Cl | B (40% ≤ B < 70%)
2 | CC(C)S(=O)(=O)c1ccccc1Nc1nc(Nc2ccc(N3CCN(C(=O)CCCCCN4CCN(c5cc(N[C@@H]6CCCN(c7cccc(F)c7)C6)ncn5)CC4)CC3)cc2)ncc1Cl | D (D < 20%)
3 | CC(C)S(=O)(=O)c1ccccc1Nc1nc(Nc2ccc(N3CCN(CC(=O)NCCOCCOCCOCCOCCN4CCN(c5cc(N[C@@H]6CCCN(c7cccc(F)c7)C6)ncn5)CC4)CC3)cc2)ncc1Cl | C (20% ≤ C < 40%)
4 | CC(C)S(=O)(=O)c1ccccc1Nc1nc(Nc2ccc(N3CCN(C(=O)CCOCCOCCOCCOCCN4CCN(c5cc(N[C@@H]6CCCN(c7cccc(F)c7)C6)ncn5)CC4)CC3)cc2)ncc1Cl | C (20% ≤ C < 40%)
5 | CC(C)S(=O)(=O)c1ccccc1Nc1nc(Nc2ccc(N3CCN(CC(=O)NCCCCCCCCN4CCN(c5cc(N[C@@H]6CCCN(c7cccc(F)c7)C6)ncn5)CC4)CC3)cc2)ncc1Cl | C (20% ≤ C < 40%)
6 | CC(C)S(=O)(=O)c1ccccc1Nc1nc(Nc2ccc(N3CCN(C(=O)CCOCCOCCN4CCN(c5cc(N[C@@H]6CCCN(c7cccc(F)c7)C6)ncn5)CC4)CC3)cc2)ncc1Cl | C (20% ≤ C < 40%)
7 | CC(C)S(=O)(=O)c1ccccc1Nc1nc(Nc2ccc(N3CCN(CC(=O)NCCOCCN4CCN(c5cc(N[C@@H]6CCCN(c7cccc(F)c7)C6)ncn5)CC4)CC3)cc2)ncc1Cl | D (D < 20%)
8 | CC(C)S(=O)(=O)c1ccccc1Nc1nc(Nc2ccc(N3CCN(CC(=O)NCCN4CCN(c5cc(N[C@@H]6CCCN(c7cccc(F)c7)C6)ncn5)CC4)CC3)cc2)ncc1Cl | B (40% ≤ B < 70%)
9 | CC(C)S(=O)(=O)c1ccccc1Nc1nc(Nc2ccc(N3CCN(CC(=O)NCCCCCN4CCN(c5cc(N[C@@H]6CCCN(c7cccc(F)c7)C6)ncn5)CC4)CC3)cc2)ncc1Cl | B (40% ≤ B < 70%)
10 | CC(C)S(=O)(=O)c1ccccc1Nc1nc(Nc2ccc(N3CCN(C(=O)CCCN4CCN(c5cc(N[C@@H]6CCCN(c7cccc(F)c7)C6)ncn5)CC4)CC3)cc2)ncc1Cl | C (20% ≤ C < 40%)
11 | CC(C)S(=O)(=O)c1ccccc1Nc1nc(Nc2ccc(N3CCN(CC(=O)NCCOCCOCCN4CCN(c5cc(N[C@@H]6CCCN(c7cccc(F)c7)C6)ncn5)CC4)CC3)cc2)ncc1Cl | D (D < 20%)
12 | CC(C)S(=O)(=O)c1ccccc1Nc1nc(Nc2ccc(N3CCN(C(=O)CCOCCOCCOCCN4CCN(c5cc(N[C@@H]6CCCN(c7cccc(F)c7)C6)ncn5)CC4)CC3)cc2)ncc1Cl | B (40% ≤ B < 70%)

Same assay, conditions: 10 μM, 8 hours

Row | Compound | % CDK4 degradation (at 10 μM)
13 | CC(C)S(=O)(=O)c1ccccc1Nc1nc(Nc2ccc(N3CCN(CC(=O)NCCCCN4CCN(c5cc(N[C@@H]6CCCN(c7cccc(F)c7)C6)ncn5)CC4)CC3)cc2)ncc1Cl | B (40% ≤ B < 70%)
14 | CC(C)S(=O)(=O)c1ccccc1Nc1nc(Nc2ccc(N3CCN(C(=O)CCCCCN4CCN(c5cc(N[C@@H]6CCCN(c7cccc(F)c7)C6)ncn5)CC4)CC3)cc2)ncc1Cl | C (20% ≤ C < 40%)
15 | CC(C)S(=O)(=O)c1ccccc1Nc1nc(Nc2ccc(N3CCN(CC(=O)NCCOCCOCCOCCOCCN4CCN(c5cc(N[C@@H]6CCCN(c7cccc(F)c7)C6)ncn5)CC4)CC3)cc2)ncc1Cl | A (A: ≥ 70%)
16 | CC(C)S(=O)(=O)c1ccccc1Nc1nc(Nc2ccc(N3CCN(C(=O)CCOCCOCCOCCOCCN4CCN(c5cc(N[C@@H]6CCCN(c7cccc(F)c7)C6)ncn5)CC4)CC3)cc2)ncc1Cl | B (40% ≤ B < 70%)
17 | CC(C)S(=O)(=O)c1ccccc1Nc1nc(Nc2ccc(N3CCN(CC(=O)NCCCCCCCCN4CCN(c5cc(N[C@@H]6CCCN(c7cccc(F)c7)C6)ncn5)CC4)CC3)cc2)ncc1Cl | A (A: ≥ 70%)
18 | CC(C)S(=O)(=O)c1ccccc1Nc1nc(Nc2ccc(N3CCN(C(=O)CCOCCOCCN4CCN(c5cc(N[C@@H]6CCCN(c7cccc(F)c7)C6)ncn5)CC4)CC3)cc2)ncc1Cl | B (40% ≤ B < 70%)
19 | CC(C)S(=O)(=O)c1ccccc1Nc1nc(Nc2ccc(N3CCN(CC(=O)NCCOCCN4CCN(c5cc(N[C@@H]6CCCN(c7cccc(F)c7)C6)ncn5)CC4)CC3)cc2)ncc1Cl | A (A: ≥ 70%)
20 | CC(C)S(=O)(=O)c1ccccc1Nc1nc(Nc2ccc(N3CCN(CC(=O)NCCN4CCN(c5cc(N[C@@H]6CCCN(c7cccc(F)c7)C6)ncn5)CC4)CC3)cc2)ncc1Cl | A (A: ≥ 70%)
21 | CC(C)S(=O)(=O)c1ccccc1Nc1nc(Nc2ccc(N3CCN(CC(=O)NCCCCCN4CCN(c5cc(N[C@@H]6CCCN(c7cccc(F)c7)C6)ncn5)CC4)CC3)cc2)ncc1Cl | A (A: ≥ 70%)
22 | CC(C)S(=O)(=O)c1ccccc1Nc1nc(Nc2ccc(N3CCN(C(=O)CCCN4CCN(c5cc(N[C@@H]6CCCN(c7cccc(F)c7)C6)ncn5)CC4)CC3)cc2)ncc1Cl | C (20% ≤ C < 40%)
23 | CC(C)S(=O)(=O)c1ccccc1Nc1nc(Nc2ccc(N3CCN(CC(=O)NCCOCCOCCN4CCN(c5cc(N[C@@H]6CCCN(c7cccc(F)c7)C6)ncn5)CC4)CC3)cc2)ncc1Cl | C (20% ≤ C < 40%)
24 | CC(C)S(=O)(=O)c1ccccc1Nc1nc(Nc2ccc(N3CCN(C(=O)CCOCCOCCOCCN4CCN(c5cc(N[C@@H]6CCCN(c7cccc(F)c7)C6)ncn5)CC4)CC3)cc2)ncc1Cl | A (A: ≥ 70%)

Target: T1, DCAF1 (1058-1396) (Homo sapiens, UniProt Q9Y4B6)
Assay: Covalent binding to DCAF1 by intact mass spectrometry
Conditions: 200 μM compound, 5 μM DCAF1, 8 h, rt

Row | Compound | Covalent binding, Reacted
25 | C=CC(=O)N1CC2(C1)CN(c1cnnc(N3CCOCC3)c1)C2 | Y
26 | C=CC(=O)N1CC2(C1)CN(c1cc(N3CCOCC3)cnn1)C2 | Y
27 | C=CC(=O)N1CCC2(CCN(c3cc(N4CCN(CC)CC4)c4nc[nH]c4n3)CC2)C1 | N
28 | C=CC(=O)N1CC2(C1)CN(c1nccc(N3CCOCC3)n1)C2 | Y
29 | C=CC(=O)N1CC[C@H](Nc2cc(N3CCN(CC)CC3)ncn2)C1 | N
30 | C=CC(=O)N1CC(CNc2nccc(N3CCOCC3)n2)C1 | N
31 | C=CC(=O)NC1CN(c2nc(N3CCOCC3)ns2)C1 | Y
32 | C=CC(=O)N[C@H]1C[C@H](NC(=O)c2ccc(Cl)c(Cl)c2)C1 | Y
33 | C=CC(=O)N1CCN(c2cccc(N3CCOCC3)n2)CC1 | Y
34 | C=CC(=O)N1CC2(CC(Nc3cc(N4CCN(CC)CC4)ncn3)C2)C1 | Y
35 | C=CC(=O)NCC1CN(c2cc(N3CCN(CC)CC3)c3occc3n2)C1 | Y
36 | C=CC(=O)NCC1CN(c2nnc(N3CCN(CC)CC3)[nH]2)C1 | N
37 | C=CC(=O)N1CCC2(CC1)CCN(c1cc(N3CCN(CC)CC3)ncn1)C2 | N
38 | 1-(6-(8-Morpholino-[1,2,4]triazolo[1,5-a]pyridin-6-yl)-2,6-diazaspiro[3.4]octan-2-yl)prop-2-en-1-one | N
39 | 1-(2-(6-Morpholinopyridin-2-yl)-2,6-diazaspiro[3.4]octan-6-yl)prop-2-en-1-one | Y
40 | C=CC(=O)N[C@H]1CC[C@H](NC(=O)c2ccc(Cl)c(Cl)c2)CC1 | N
41 | C=CC(=O)N1CC2(CC(Nc3cc(N4CCOCC4)ncn3)C2)C1 | Y
42 | C=CC(=O)N1CCC2C1CCN2c1ncnc(N2CCN(CC)CC2)n1 (centres unmarked) | Y

Row | Compound | Covalent binding, Reacted
43 | C=CC(=O)NC1CN(c2nsc(N3CCOCC3)n2)C1 | Y
44 | C=CC(=O)N1CCC(Nc2cc(N3CCOCC3)ncn2)CC1 | Y
45 | C=CC(=O)N1CCC2(C1)CN(c1nccc(N3CCNCC3)n1)C2 | N
46 | C=CC(=O)N1CC2(C1)CN(c1cc(N3CCOCC3)ccn1)C2 | Y
47 | C=CC(=O)N1CCN(c2n[nH]c(N3CCC4(CCN(c5ccccc5)C4)C3)n2)CC1 (centres unmarked) | Y
48 | C=CC(=O)N1CC2(CCN(c3cc(N4CCN(CC)CC4)ncn3)CC2)C1 | Y
49 | C=CC(=O)N1CC2(C1)CN(c1ccnc(N3CCNCC3)n1)C2 | Y
50 | C=CC(=O)N1CCN(c2cc(N[C@@H]3CCCN(c4cccc(F)c4)C3)ncn2)CC1 | N
51 | C=CC(=O)N1CCC2(CC1)CCN(c1cccc(N3CCN(CC)CC3)n1)C2 | N
52 | C=CC(=O)N1CCn2nc(Nc3cccc(N4CCN(CC)CC4)n3)cc2C1 | Y
53 | C=CC(=O)N1CCC2(CC1)CN(c1cccc(N3CCN(CC)CC3)n1)C2 | Y
54 | C=CC(=O)NC1CN(c2cccc(N3CCOCC3)n2)C1 | Y
55 | C=CC(=O)N1CC[C@H](Nc2cccc(N3CCN(CC)CC3)n2)C1 | Y
56 | C=CC(=O)N1CC2(CCN(c3cc(N4CCOCC4)ncn3)CC2)C1 | Y
57 | C=CC(=O)NC1CN(c2ccnc(N3CCOCC3)n2)C1 | Y
58 | C=CC(=O)N1CCC2(CCN(c3cc(N4CCN(CC)CC4)ncn3)CC2)C1 | Y
59 | C=CC(=O)N1CCC2(C1)CN(c1cc(N3CCNCC3)ccn1)C2 | N

Target: T1, DCAF1 (1058-1396)
Assay: SPR binding to DCAF1 (1058-1396), steady state Kd
Conditions: 25 °C, steady state affinity model, Table 7

Row | Compound | pKd
60 | c1ccc(N2CCC(CNc3cc(N4CCOCC4)ncn3)CC2)cc1 | > 4.60
61 | Cc1ccc(N2CCC[C@@H](Nc3cc(N4CCOCC4)ncn3)C2)nc1 | < 4.00
62 | c1ccc(N[C@H]2C[C@H](Nc3cc(N4CCOCC4)ncn3)C2)cc1 | < 4.00
63 | c1ccc(NCC2CC3(C2)CN(c2cc(N4CCOCC4)ncn2)C3)cc1 | < 4.00
64 | c1cncc(N2CCC[C@@H](Nc3cc(N4CCOCC4)ncn3)C2)c1 | 4.30 to 4.60
65 | Nc1nc(O)cc(N2CCC[C@@H](Nc3cc(N4CCOCC4)ncn3)C2)n1 | < 4.00
66 | O=C(NCC1CN(c2ccccc2)C1)c1ccc(Cl)c(Cl)c1 | < 4.00
67 | O=C(c1ccc(Cl)c(O)c1)N1CCC2(C1)CN(c1ccccc1)C2 | < 4.00
68 | Fc1ccccc1N1CCC[C@@H](Nc2cc(N3CCOCC3)ncn2)C1 | < 4.00
69 | Oc1cncc(N2CCC[C@@H](Nc3cc(N4CCOCC4)ncn3)C2)c1 | 4.00 to 4.30
70 | CNC(=O)c1ccnc(N2CCC3(CN(c4ccccc4)C3)C2)c1 | < 4.00
71 | c1ccc(N2CC3(CCN(c4cc(N5CCOCC5)ncn4)C3)C2)cc1 | < 4.00
72 | c1cc(N2CCC[C@@H](Nc3cc(N4CCOCC4)ncn3)C2)ccn1 | > 4.60
73 | CNC(=O)c1ccnc(N[C@H]2C[C@H](Nc3ccccc3)C2)c1 | < 4.00
74 | Cn1cc(N2CCC[C@@H](Nc3cc(N4CCOCC4)ncn3)C2)cn1 | < 4.00
75 | c1ccc(N2CC(CCNc3cc(N4CCOCC4)ncn3)C2)cc1 | < 4.00
76 | Fc1cccc(N2CCC[C@@H](Nc3cc(N4CCNCC4)ncn3)C2)c1 | < 4.00

Row | Compound | pKd
77 | Fc1cccc(N2CC[C@@H](Nc3cc(N4CCOCC4)ncn3)C2)c1 | < 4.00
78 | c1ccc(N2[C@@H]3C[C@H]2CN(c2cc(N4CCOCC4)ncn2)C3)cc1 | < 4.00
79 | c1ccc(N2CCC(CNc3nccc(N4CCOCC4)n3)CC2)cc1 | < 4.00
80 | c1ccc(NC2CCN(c3nccc(N4CCOCC4)n3)C2)cc1 (centres unmarked) | 4.30 to 4.60
81 | c1ccc(NC2CCCC(Nc3cc(N4CCOCC4)ncn3)C2)cc1 (centres unmarked) | 4.00 to 4.30
82 | Fc1cccc(N2CCC[C@@H](Nc3ccnc(N4CCOCC4)c3)C2)c1 | < 4.00
83 | Cc1cnc(N2CCC[C@@H](Nc3cc(N4CCOCC4)ncn3)C2)nc1 | < 4.00
84 | c1ccc(NC2CC3(C2)CN(c2cc(N4CCOCC4)ncn2)C3)cc1 | < 4.00
85 | Fc1cccc(N2CCC[C@@H](Nc3ccnc(N4CCOCC4)n3)C2)c1 | 4.00 to 4.30
86 | c1ccc(N2CCC3(CCC3CNc3cc(N4CCOCC4)ncn3)CC2)cc1 (centres unmarked) | < 4.00
87 | c1ccc(N2CCCC3(C2)CN(c2cc(N4CCOCC4)ncn2)C3)cc1 | < 4.00
88 | c1ccc(N[C@H]2CC[C@H](Nc3cc(N4CCOCC4)ncn3)C2)cc1 | < 4.00
89 | CNC(=O)c1ccnc(N2C[C@H]3C[C@@H]2CN3c2ccccc2)c1 | < 4.00
90 | c1ccc(N[C@H]2CC[C@H](Nc3cc(N4CCOCC4)ncn3)CC2)cc1 | 4.30 to 4.60
91 | Cc1nc(N2CCC[C@@H](Nc3cc(N4CCOCC4)ncn3)C2)no1 | < 4.00
92 | OCc1ccc(NC2CCN(c3cc(N4CCOCC4)ncn3)C2)nc1 (centres unmarked) | < 4.00

pKd: −log10 of the molar value.
